According to ChEMBL document CHEMBL1126196, “Improvements in the minimum binding sequence of C5a: examination of His-67” (J Med Chem, 1992):

Biological target: T1, C5a anaphylatoxin chemotactic receptor 1 (Homo sapiens, UniProt P21730)
T1 sequence (P21730 whole entry): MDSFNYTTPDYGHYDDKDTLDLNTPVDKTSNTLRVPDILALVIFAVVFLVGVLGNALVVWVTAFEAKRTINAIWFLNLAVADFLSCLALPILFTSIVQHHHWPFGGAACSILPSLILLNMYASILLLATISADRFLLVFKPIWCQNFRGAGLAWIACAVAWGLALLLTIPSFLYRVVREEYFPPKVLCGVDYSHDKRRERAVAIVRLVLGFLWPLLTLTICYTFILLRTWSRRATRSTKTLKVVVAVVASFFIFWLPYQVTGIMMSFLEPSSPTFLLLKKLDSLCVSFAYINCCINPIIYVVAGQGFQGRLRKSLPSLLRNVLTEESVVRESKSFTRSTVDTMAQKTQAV
Assay: Inhibitory activity against [125I]-rC5a binding to C5a anaphylatoxin chemotactic receptor in human polymorphonuclear leukocyte (PMNL) membranes
Procedure, shortened: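 Competition binding on human PMNL membrane fragments, peptides displacing ¹²⁵I-labelled recombinant C5a. Inhibition binding data converted to apparent dissociation constant (Ki) by the Cheng–Prusoff method.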

Compound	Ki
CC[C@H](C)[C@H](N)C(=O)N[C@@H](CO)C(=O)N[C@@H](Cc1ccccc1)C(=O)N[C@@H](CCCCN)C(=O)N[C@@H](CC(=O)O)C(=O)N[C@@H](CCSC)C(=O)N[C@@H](CCC(N)=O)C(=O)N[C@@H](CC(C)C)C(=O)NCC(=O)N[C@@H](CCCN=C(N)N)C(=O)O	390 nM
CC[C@H](C)[C@H](NC(=O)[C@H](CC(N)=O)NC(=O)[C@H](C)N)C(=O)N[C@@H](CO)C(=O)N[C@@H](Cc1ccccc1)C(=O)N[C@@H](CCCCN)C(=O)N[C@@H](CC(=O)O)C(=O)N[C@@H](CCSC)C(=O)N[C@@H](CCC(N)=O)C(=O)N[C@@H](CC(C)C)C(=O)NCC(=O)N[C@@H](CCCN=C(N)N)C(=O)O	220 nM
